# scFv variants of Ab-91 (heavy chain) against a SARS-CoV-2 spike peptide

Values reported by Engelhart et al. 2022, doi:10.1038/s41597-022-01779-4 (FLAb copy).

Binding partner: SARS-CoV-2 spike HR2 peptide, sequence PDVDLGDISGINAS.

Ab-91 is the parent antibody, in scFv form: VL, then three GGGGS repeats, then VH. The light chain is unchanged in all variants.
VL: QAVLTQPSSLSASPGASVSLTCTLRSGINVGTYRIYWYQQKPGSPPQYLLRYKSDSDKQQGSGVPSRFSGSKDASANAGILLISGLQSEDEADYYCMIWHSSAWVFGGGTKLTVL
VH: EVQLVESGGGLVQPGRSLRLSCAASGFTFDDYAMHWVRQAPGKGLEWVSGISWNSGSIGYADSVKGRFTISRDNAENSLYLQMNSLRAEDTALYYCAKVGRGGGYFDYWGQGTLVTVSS

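The starting antibody came from a phage panning campaign against this peptide. AAYL51 was designed without a model: most single CDR substitutions and a random sample of double and triple ones. Affinity was read by AlphaSeq, a pooled yeast mating assay with surface-displayed partners. After mating in shaken culture at 30 °C for 16 h, diploids were selected and their barcode pairs sequenced. A regression on co-assayed BCL2-family reference pairs converts the normalised counts of each replicate to an apparent Kd. Each pool was mated in three replicate cultures.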

The parent's heavy chain CDRs are GFTFDDYAMH, GISWNSGSIGYADSVK, VGRGGGYFDY; each variant's own CDRs replace them letter for letter.
Numbers give log10(Kd / nM), so 0 is 1 nM and 3 is 1 µM. Smaller is tighter.
"n.d." marks a missing value. The strain was present, yet no cells mated with the target were sequenced in that replicate, which points to weak or no binding.

CDR-H1	CDR-H2	CDR-H3	log10 Kd, replicates	empty controls
GFTFDDYAME	GKSWLSGSIGYADSVK	VGRGGGYFDY	n.d. / n.d. / n.d.	0/9
GFTFDDYAMH	GISWNSLSIGYADLVK	VKRGGGYFDY	5.12 / 4.41 / 4.96	5/9 (5.09)
GFTFKDYAMH	GISWNSGSIGYADSVE	VGRGGGKFDY	2.67 / 2.40 / 2.36	4/9 (4.21)
GFTWDDYAMH	GISWNSGSIGYADSVG	VGRGGGYVDY	n.d. / n.d. / n.d.	0/9
SFTFDDYAMH	CISWNSKSIGYADSVK	VGRGGGYFDY	n.d. / n.d. / n.d.	0/9
PFTFDDYAMH	TIFWNSGSIGYADSVK	VGRGGGYFDY	n.d. / n.d. / n.d.	0/9
GFTNDDWAMH	GISWNSRSIGYADSVK	VGRGGGYFDY	3.15 / 4.55 / n.d.	4/9 (3.90)
GFTFDDYAMH	GIRWNSGSIGYAPSVK	VGRNGGYFDY	5.39 / 6.35 / 6.04	4/9 (4.78)
GFTFDDYAMH	GISWNSGSIGYADAVK	VGRGGGYFDY	4.28 / n.d. / 5.18	3/9 (4.38)
GFTFDNYFMH	GISWNSGSAGYADSVK	VGRGGGYFDY	n.d. / 4.75 / n.d.	0/9
GFTFDDYADH	GISWNSGSIGKADPVK	VGRGGGYFDY	n.d. / n.d. / 3.68	0/9
GFTFDDYAMH	GISINSGSIGYADHSK	VGRGGGYFDY	n.d. / n.d. / n.d.	0/9
GFTFDDYTMA	GISWNSGSIGYADRVK	VGRGGGYFDY	n.d. / n.d. / n.d.	0/9
GFTIDDYAMH	GISWNSASIGYADSVM	VGRGGGYFDY	n.d. / n.d. / n.d.	1/9 (4.67)
GFTPDDYAMH	GISWNSGSIGYADSVK	YGRGNGYFDY	n.d. / 4.47 / n.d.	3/9 (5.38)
GFTFDDYACH	GISWNSGSIGYADKVK	QGRGGGYFDY	n.d. / n.d. / n.d.	0/9
GFTFDLYAMH	GIWWNSGSIGYADSVW	VGRGGGYFDY	n.d. / n.d. / n.d.	0/9
GFTFDPYAMH	GKSWNSGSIGYADSVK	CGRGGGYFDY	n.d. / n.d. / n.d.	0/9
GFTQDDYAMH	SISHNSGSIGYADSVK	VGRGGGYFDY	n.d. / 3.56 / n.d.	2/9 (4.96)
GFTDDDYAMH	GISWNSGSIGYADSVK	VGRGGVYFDY	n.d. / n.d. / n.d.	0/9
GATFDDYAMM	GISWNSGSIGYAISVK	VGRGGGYFDY	2.11 / 1.90 / 2.58	3/9 (4.80)
GRTFMDYAMH	LISWNSGSIGYADSVK	VGRGGGYFDY	4.54 / 6.76 / n.d.	7/9 (5.29)
GFTFDDYASH	GISWNSGSIGYADSVK	VGRGGYYIDY	n.d. / n.d. / n.d.	0/9
GFTFDDYAMH	GISPNSGSIGYADSVK	VGRGGGYMNY	n.d. / n.d. / n.d.	0/9
GFTFDDYPMH	GISWNSGDIGCADSVK	VGRGGGYFDY	3.10 / 3.29 / 3.91	2/9 (4.84)
GFTFDDYAMH	GISWNSGPIGYADSVK	VGRAQGYFDY	n.d. / n.d. / n.d.	2/9 (4.37)
GFTFDDYAMH	GISWNSGSIGYADSVK	VFRGGGYFDY	1.99 / 1.63 / 1.61	0/9
CFTFDDYAMH	GISWNGGSIGEADSVK	VGRGGGYFDY	n.d. / n.d. / n.d.	0/9
GFTFDDYAMH	GISWNSGSIGYADSVK	VRTGGGYDDY	4.40 / n.d. / n.d.	0/9
GFTFDDYAMH	GISWNSGSIGSGDSVK	VGRGGGYFLY	n.d. / n.d. / n.d.	1/9 (5.90)
GFTEDDYAMH	GISWNSGSIGYADSVK	VGCGGGYFMY	n.d. / n.d. / n.d.	1/9 (4.44)
GFTFDDYAMH	GISANSKSIGYADSVK	VGRGGGYFPY	4.12 / n.d. / n.d.	6/9 (4.87)
GFTFDDYAMH	GIGWNSMSIGYADSVK	VGRGGGYFDY	n.d. / n.d. / n.d.	1/9 (4.91)
GFTFDDYAMH	GTSWNSGSCGYADSVK	VGRGGGYFDS	2.41 / 2.36 / 2.09	1/9 (4.19)
GFTQEDYAMH	GISWNSGSIGYADSVK	VPRGGGYFDY	3.34 / n.d. / 3.99	2/9 (4.09)
GFTFDIYAMH	GISWNSGSPGYADSVK	VWRGGGYFDY	5.89 / 6.71 / 4.86	8/9 (5.26)
GKTFDDYAMH	DKSWNSGSIGYADSVK	VGRGGGYFDY	n.d. / n.d. / 5.11	4/9 (4.71)
GFTFDDVAMH	GISWNSGSIGYADSVK	VGCGGGQFDY	n.d. / n.d. / n.d.	1/9 (4.44)
GFTFDDYNMH	GISWLSGSIGYLDSVK	VGRGGGYFDY	n.d. / n.d. / n.d.	0/9
GFTFDDYAMF	GISWNSHSIGYVDSVK	VGRGGGYFDY	n.d. / n.d. / n.d.	0/9
GFTFDDYAMH	GISWNSGSIGYATSVI	VGLGGGYFDY	n.d. / n.d. / 3.95	1/9 (3.04)
GFTFDDGAMH	GISWNSGSIGYADSRK	VGRGGGNFDY	n.d. / n.d. / n.d.	1/9 (5.19)
KFTFDDYAMH	GISWNSGSCGYAPSVK	VGRGGGYFDY	2.90 / 2.72 / 2.81	4/9 (4.11)
GFTFDDYAMH	GISWESGSIGYAISVK	VGRGGGYFSY	n.d. / n.d. / n.d.	0/9
GFTFDDYAMH	GISWNSGSIGYADSQK	VGRGGIYFDT	4.00 / n.d. / n.d.	1/9 (3.94)

Extract of 7 entries:

CDR-H1,CDR-H2,CDR-H3,"log10 Kd, replicates",empty controls
GFTFDDYAMH,GISWNSGSIGYATSVI,VGLGGGYFDY,n.d. / n.d. / 3.95,1/9 (3.04)
GFTFDDYPMH,GISWNSGDIGCADSVK,VGRGGGYFDY,3.10 / 3.29 / 3.91,2/9 (4.84)
CFTFDDYAMH,GISWNGGSIGEADSVK,VGRGGGYFDY,n.d. / n.d. / n.d.,0/9
GFTQDDYAMH,SISHNSGSIGYADSVK,VGRGGGYFDY,n.d. / 3.56 / n.d.,2/9 (4.96)
GFTFDDYAMH,GISWNSGSIGYADSQK,VGRGGIYFDT,4.00 / n.d. / n.d.,1/9 (3.94)
GFTFDDYAMH,GISANSKSIGYADSVK,VGRGGGYFPY,4.12 / n.d. / n.d.,6/9 (4.87)
GFTFDDYAMH,GISPNSGSIGYADSVK,VGRGGGYMNY,n.d. / n.d. / n.d.,0/9

Background: pairings of library AAYL51 with three empty control strains gave a value in 21% of cases (median 4.54, 5th percentile 3.26). Values in that range, when seen in few replicates, are hard to tell from nonspecific mating. For each scFv, signals with the empty controls are counted beside the result, with their mean in brackets.
For reference, the parent read 1.86 as the reference entry and 0.88 as a member of this library.